Experimental data published in PubChem BioAssay AID1159606 (Sanford-Burnham Center for Chemical Genomics, 2016).
The list shows a part of the results, in another mix than the full data. Some salts and complexes are drawn in separate pieces, as the source files them; their charges need not balance. Activity calls are given as the source filed them. Cut-off read from the data, not from the text of the source: active = inhibition above about 50%; inactive = the rest.

Experiment: inhibitors of TWEAK-Fn14 signaling, primary screen, luciferase reporter cells, uHTS (AID 1159606)
Settings: TWEAK-stimulated Fn14 reporter cells, luciferase luminescence, 8 h; at 10 µM; stronger effect = higher value
For `CP(=O)(Nc1ccc(SC(F)(F)F)cc1)Oc1ccc(F)cc1` (stereo unspecified), the inhibition was inactive: -5.34%.
With `CCOP(C)(=S)SCC(=O)NC(C)(CC)C(=O)O` (stereo unspecified) the inhibition was inactive: 2.82%.
In the case of `CP(=O)(Nc1ccc2c(c1)OCCO2)Oc1ccccc1` (stereo unspecified), the inhibition is reported as active: 66%.
With `Cc1ccccc1NP(C)(=O)Nc1ccccc1C` the inhibition was inactive: -13%.
With `O=[N+]([O-])c1cc([N+](=O)[O-])c(C(F)(F)F)c([N+](=O)[O-])c1O` the inhibition was inactive: 1.93%.
In the case of `O=[N+]([O-])c1cc([N+](=O)[O-])c(Nc2ccc(Cl)cc2)c([N+](=O)[O-])c1`, the inhibition is reported as active: 75.5%.
For `CP(=O)(Nc1ccccc1F)Oc1ccccc1` (stereo unspecified), the inhibition was inactive: -4.79%.
With `CC(C)c1ccc(OP(C)(=O)Nc2ccc(SC(F)(F)F)cc2)cc1` (stereo unspecified) the inhibition was inactive: 0.91%.
In the case of `O=C(OC1CN2CCC1CC2)c1ccc([N+](=O)[O-])cc1` (stereo unspecified), the inhibition is reported as inactive: -5.91%.
For `O=C(OCCN1CCN(CCOCc2ccccc2)CC1)C(O)(c1ccccc1)c1ccccc1`, the inhibition was inactive: 5.68%.
In the case of `COc1ccc2c(c1O)-c1c(O)c(OC)cc3c1[C@H](C2)[N+](C)(C)CC3.O=[N+]([O-])c1cc([N+](=O)[O-])c([O-])c([N+](=O)[O-])c1[O-]`, the inhibition is reported as inactive: -0.12%.
In the case of `CCN(CC)CCCNc1ccccc1[N+](=O)[O-].O=[N+]([O-])c1cc([N+](=O)[O-])c(O)c([N+](=O)[O-])c1`, the inhibition is reported as inactive: -3.19%.
In the case of `CCOC(=O)c1ccc(NP(C)(=O)Oc2ccc(F)cc2)cc1` (stereo unspecified), the inhibition is reported as inactive: 3.33%.
For `COc1ccc(OP(C)(=O)Nc2ccc(SC(F)(F)F)cc2)cc1` (stereo unspecified), the inhibition was inactive: -5.49%.
With `Cc1c([N+](=O)[O-])cc([N+](=O)[O-])c(Br)c1[N+](=O)[O-]` the inhibition was inactive: -16%.
In the case of `CCN(CC)CCCOC(=O)C(O)(c1ccccc1)C1CCCCC1` (stereo unspecified), the inhibition is reported as inactive: 3.05%.
For `CP(=O)(Nc1ccccc1)Oc1ccc(F)cc1` (stereo unspecified), the inhibition was inactive: 11.2%.
In the case of `O=[N+]([O-])c1cc([N+](=O)[O-])c(OC2CCCCC2O)c([N+](=O)[O-])c1` (stereo unspecified), the inhibition is reported as inactive: 5.8%.
In the case of `CCCCCOc1ccc(NP(C)(=O)Oc2ccc(Cl)cc2Cl)cc1` (stereo unspecified), the inhibition is reported as inactive: -2.33%.
For `Cc1cc(C)cc(OP(C)(=O)Nc2cccc(C(F)(F)F)c2)c1` (stereo unspecified), the inhibition was inactive: 1.82%.
With `O=C1C(O)=C([N+](=O)[O-])C(=O)C(O)=C1[N+](=O)[O-]` the inhibition was inactive: 8.75%.
In the case of `COc1ccccc1OP(C)(=O)Nc1ccc(C)c(C)c1` (stereo unspecified), the inhibition is reported as inactive: 10.1%.
For `COc1ccc(OP(C)(=O)Nc2ccccc2Br)cc1` (stereo unspecified), the inhibition was inactive: -2.69%.
In the case of `CP(=O)(Nc1ccc(Cl)cc1Cl)Oc1ccccc1` (stereo unspecified), the inhibition is reported as inactive: -13.3%.
For `CCCCCCCCCCCCCCCC1C[N+](C)(C)CCOP(C)(=O)O1` (stereo unspecified), the inhibition was inactive: -86.4%.
For `CP(=O)(OCCOc1ccccc1)OCCOc1ccccc1`, the inhibition was inactive: 3.28%.
With `COc1ccccc1OP(C)(=O)Nc1ccc(Br)cc1` (stereo unspecified) the inhibition was inactive: 14.4%.
With `COc1ccc(OP(C)(=O)Nc2ccccn2)cc1` (stereo unspecified) the inhibition was inactive: 34%.
In the case of `CN(C)CCOC(=O)C(O)(c1ccccc1)C1CCCC1` (stereo unspecified), the inhibition is reported as inactive: -36.1%.
For `Cc1c(NP(C)(=O)Oc2ccc(C(C)C)cc2)c(=O)n(-c2ccccc2)n1C` (stereo unspecified), the inhibition was inactive: -16%.
In the case of `O=[N+]([O-])c1cc([N+](=O)[O-])c(Nc2ccccn2)c([N+](=O)[O-])c1`, the inhibition is reported as inactive: 30.9%.
In the case of `COc1ccccc1OP(C)(=O)Nc1ccc(C)cc1C` (stereo unspecified), the inhibition is reported as inactive: -3.91%.
In the case of `CP(=O)(Nc1ccccn1)Oc1ccccc1` (stereo unspecified), the inhibition is reported as inactive: -14.9%.
For `CCc1ccc(OP(C)(=O)O)cc1`, the inhibition was inactive: 6.66%.
With `COc1ccc(OP(C)(=O)Nc2ccc(Br)cc2)cc1` (stereo unspecified) the inhibition was inactive: 6.87%.
In the case of `CCN(CC)CC(O)COC(=O)C(O)(c1ccccc1)C1CCCCC1` (stereo unspecified), the inhibition is reported as inactive: -15.6%.
For `O=C(OCCCN1CCCC1)C(O)(c1ccccc1)C1CCCCC1` (stereo unspecified), the inhibition was inactive: -5.92%.
In the case of `COc1ccccc1OP(C)(=O)Nc1c(C)n(C)n(-c2ccccc2)c1=O` (stereo unspecified), the inhibition is reported as inactive: -7.86%.
For `CCc1ccc(OP(C)(=O)Nc2cccnc2)cc1` (stereo unspecified), the inhibition was inactive: 19.9%.
In the case of `CP(=O)(Oc1ccccc1)N1CCOC1=O` (stereo unspecified), the inhibition is reported as inactive: 8.58%.
In the case of `COc1ccccc1OP(C)(=O)Nc1ccccc1Br` (stereo unspecified), the inhibition is reported as inactive: -18.6%.
For `CC(C)(C)c1ccc(OP(C)(=O)O)cc1`, the inhibition was inactive: 15.4%.
With `CP(=O)(Nc1ccc(Cl)cc1)Oc1ccc(F)cc1` (stereo unspecified) the inhibition was inactive: 0.41%.
For `CN(C)C(=O)c1c([N+](=O)[O-])cc([N+](=O)[O-])cc1[N+](=O)[O-]`, the inhibition was inactive: 9.08%.
In the case of `CCOC(=O)c1ccc(NP(C)(=O)Oc2ccc(Cl)cc2)cc1` (stereo unspecified), the inhibition is reported as inactive: 5.51%.
In the case of `CP(=O)(OC12CC3CC(CC(C3)C1)C2)OC12CC3CC(CC(C3)C1)C2`, the inhibition is reported as inactive: 1.35%.
